Experimental data published in US6858018B1.

Assay: in vitro iontophoretic delivery through excised porcine skin in flow-through cells
Conditions: 500 uA

remifentanil hydrochloride
Flux (Exp #1, 10 mg/ml in water, 1 mg, 0.00 hrs): 0.00 μg/min/cm^2
Flux (Exp #1, 10 mg/ml in water, 1 mg, 1.00 hrs): 0.00 μg/min/cm^2
Flux (Exp #1, 10 mg/ml in water, 1 mg, 2.00 hrs): 0.00 μg/min/cm^2
Flux (Exp #1, 10 mg/ml in water, 1 mg, 3.00 hrs): 0.02 μg/min/cm^2
Flux (Exp #1, 10 mg/ml in water, 1 mg, 4.00 hrs): 0.03 μg/min/cm^2
Flux (Exp #1, 10 mg/ml in water, 1 mg, 5.00 hrs): 0.05 μg/min/cm^2
Flux (Exp #1, 10 mg/ml in water, 1 mg, 6.00 hrs): 0.07 μg/min/cm^2
Flux (Exp #1, 10 mg/ml in water, 1 mg, 7.00 hrs): 0.09 μg/min/cm^2
Flux (Exp #1, 10 mg/ml in water, 1 mg, 8.00 hrs): 0.11 μg/min/cm^2
Flux (Exp #1, 10 mg/ml in water, 1 mg, 9.00 hrs): 0.12 μg/min/cm^2
Flux (Exp #1, 10 mg/ml in water, 1 mg, 10.00 hrs): 0.15 μg/min/cm^2
Flux (Exp #1, 10 mg/ml in water, 1 mg, 11.00 hrs): 0.16 μg/min/cm^2
Flux (Exp #1, 10 mg/ml in water, 1 mg, 12.00 hrs): 0.18 μg/min/cm^2
Flux (Exp #1, 10 mg/ml in water, 1 mg, 13.00 hrs): 0.20 μg/min/cm^2
Flux (Exp #1, 10 mg/ml in water, 1 mg, 14.00 hrs): 0.22 μg/min/cm^2
Flux (Exp #1, 10 mg/ml in water, 1 mg, 15.00 hrs): 0.23 μg/min/cm^2
Flux (Exp #1, 10 mg/ml in water, 1 mg, 16.00 hrs): 0.24 μg/min/cm^2
Flux (Exp #1, 10 mg/ml in water, 1 mg, 17.00 hrs): 0.25 μg/min/cm^2
Flux (Exp #1, 10 mg/ml in water, 1 mg, 18.00 hrs): 0.26 μg/min/cm^2
Flux (Exp #1, 10 mg/ml in water, 1 mg, 19.00 hrs): 0.26 μg/min/cm^2
Flux (Exp #1, 10 mg/ml in water, 1 mg, 20.00 hrs): 0.26 μg/min/cm^2
Flux (Exp #1, 10 mg/ml in water, 1 mg, 21.00 hrs): 0.24 μg/min/cm^2
Flux (Exp #1, 10 mg/ml in water, 1 mg, 22.00 hrs): 0.23 μg/min/cm^2
Flux (Exp #1, 10 mg/ml in water, 1 mg, 23.00 hrs): 0.22 μg/min/cm^2
Flux (Exp #1, 10 mg/ml in water, 1 mg, 24.00 hrs): 0.20 μg/min/cm^2
Flux (Exp #1, 10 mg/ml in water, 1 mg, −1.00 hrs): 0.00 μg/min/cm^2
Flux (Exp #2, 20 mg/ml in water, 2 mg, 0.00 hrs): 0.00 μg/min/cm^2
Flux (Exp #2, 20 mg/ml in water, 2 mg, 1.00 hrs): 0.00 μg/min/cm^2
Flux (Exp #2, 20 mg/ml in water, 2 mg, 2.00 hrs): 0.02 μg/min/cm^2
Flux (Exp #2, 20 mg/ml in water, 2 mg, 3.00 hrs): 0.03 μg/min/cm^2
Flux (Exp #2, 20 mg/ml in water, 2 mg, 4.00 hrs): 0.05 μg/min/cm^2
Flux (Exp #2, 20 mg/ml in water, 2 mg, 5.00 hrs): 0.05 μg/min/cm^2
Flux (Exp #2, 20 mg/ml in water, 2 mg, 6.00 hrs): 0.06 μg/min/cm^2
Flux (Exp #2, 20 mg/ml in water, 2 mg, 7.00 hrs): 0.06 μg/min/cm^2
Flux (Exp #2, 20 mg/ml in water, 2 mg, 8.00 hrs): 0.06 μg/min/cm^2
Flux (Exp #2, 20 mg/ml in water, 2 mg, 9.00 hrs): 0.07 μg/min/cm^2
Flux (Exp #2, 20 mg/ml in water, 2 mg, 10.00 hrs): 0.07 μg/min/cm^2
Flux (Exp #2, 20 mg/ml in water, 2 mg, 11.00 hrs): 0.08 μg/min/cm^2
Flux (Exp #2, 20 mg/ml in water, 2 mg, 12.00 hrs): 0.09 μg/min/cm^2
Flux (Exp #2, 20 mg/ml in water, 2 mg, 13.00 hrs): 0.10 μg/min/cm^2
Flux (Exp #2, 20 mg/ml in water, 2 mg, 14.00 hrs): 0.11 μg/min/cm^2
Flux (Exp #2, 20 mg/ml in water, 2 mg, 15.00 hrs): 0.12 μg/min/cm^2
Flux (Exp #2, 20 mg/ml in water, 2 mg, 16.00 hrs): 0.14 μg/min/cm^2
Flux (Exp #2, 20 mg/ml in water, 2 mg, 17.00 hrs): 0.15 μg/min/cm^2
Flux (Exp #2, 20 mg/ml in water, 2 mg, 18.00 hrs): 0.17 μg/min/cm^2
Flux (Exp #2, 20 mg/ml in water, 2 mg, 19.00 hrs): 0.19 μg/min/cm^2
Flux (Exp #2, 20 mg/ml in water, 2 mg, 20.00 hrs): 0.21 μg/min/cm^2
Flux (Exp #2, 20 mg/ml in water, 2 mg, 21.00 hrs): 0.23 μg/min/cm^2
Flux (Exp #2, 20 mg/ml in water, 2 mg, 22.00 hrs): 0.26 μg/min/cm^2
Flux (Exp #2, 20 mg/ml in water, 2 mg, 23.00 hrs): 0.27 μg/min/cm^2
Flux (Exp #2, 20 mg/ml in water, 2 mg, 24.00 hrs): 0.29 μg/min/cm^2
Flux (Exp #2, 20 mg/ml in water, 2 mg, −1.00 hrs): 0.00 μg/min/cm^2
Flux (Exp #3, 10 mg/ml in water, 3 mg, 0.00 hrs): 0.00 μg/min/cm^2
Flux (Exp #3, 10 mg/ml in water, 3 mg, 1.00 hrs): 0.00 μg/min/cm^2
Flux (Exp #3, 10 mg/ml in water, 3 mg, 2.00 hrs): 0.01 μg/min/cm^2
Flux (Exp #3, 10 mg/ml in water, 3 mg, 3.00 hrs): 0.03 μg/min/cm^2
Flux (Exp #3, 10 mg/ml in water, 3 mg, 4.00 hrs): 0.04 μg/min/cm^2
Flux (Exp #3, 10 mg/ml in water, 3 mg, 5.00 hrs): 0.04 μg/min/cm^2
Flux (Exp #3, 10 mg/ml in water, 3 mg, 6.00 hrs): 0.04 μg/min/cm^2
Flux (Exp #3, 10 mg/ml in water, 3 mg, 7.00 hrs): 0.04 μg/min/cm^2
Flux (Exp #3, 10 mg/ml in water, 3 mg, 8.00 hrs): 0.03 μg/min/cm^2
Flux (Exp #3, 10 mg/ml in water, 3 mg, 9.00 hrs): 0.03 μg/min/cm^2
Flux (Exp #3, 10 mg/ml in water, 3 mg, 10.00 hrs): 0.033 μg/min/cm^2
Flux (Exp #3, 10 mg/ml in water, 3 mg, 11.00 hrs): 0.035 μg/min/cm^2
Flux (Exp #3, 10 mg/ml in water, 3 mg, 12.00 hrs): 0.037 μg/min/cm^2
Flux (Exp #3, 10 mg/ml in water, 3 mg, 13.00 hrs): 0.039 μg/min/cm^2
Flux (Exp #3, 10 mg/ml in water, 3 mg, 14.00 hrs): 0.04 μg/min/cm^2
Flux (Exp #3, 10 mg/ml in water, 3 mg, 15.00 hrs): 0.047 μg/min/cm^2
Flux (Exp #3, 10 mg/ml in water, 3 mg, 16.00 hrs): 0.05 μg/min/cm^2
Flux (Exp #3, 10 mg/ml in water, 3 mg, 17.00 hrs): 0.058 μg/min/cm^2
Flux (Exp #3, 10 mg/ml in water, 3 mg, 18.00 hrs): 0.06 μg/min/cm^2
Flux (Exp #3, 10 mg/ml in water, 3 mg, 19.00 hrs): 0.072 μg/min/cm^2
Flux (Exp #3, 10 mg/ml in water, 3 mg, 20.00 hrs): 0.08 μg/min/cm^2
Flux (Exp #3, 10 mg/ml in water, 3 mg, 21.00 hrs): 0.098 μg/min/cm^2
Flux (Exp #3, 10 mg/ml in water, 3 mg, 22.00 hrs): 0.12 μg/min/cm^2
Flux (Exp #3, 10 mg/ml in water, 3 mg, 23.00 hrs): 0.124 μg/min/cm^2

This is a selection: effects in other tests are not listed, and their absence says nothing.
